# Assay results from US5441962A, “Method for treating hyperlipemia” (priority 1992, dated 1995).
# Read-outs that look alike come from different tables or passages of the source.
# Tested on: mice
# Format: in vivo
# Settings: oral
smiles,measurement,setting,value
Cl.Cn1cc(OCC(O)CNC(C)(C)C)c2ccccc2c1=O (racemic) [(±)-4-(3-tert.-butylamino-2-hydroxypropoxy)-2-methyl-1 (2H)-isoquinolinone hydrochloride],"LD50, range in parentheses",female mice,1063 to 1566 mg/kg
same,"LD50, range in parentheses",male mice,1223 to 1587 mg/kg
